Experimental data from article PMC8165550, “Molecular basis for diaryldiamine selectivity and competition with tRNA in a type 2 methionyl-tRNA synthetase from a Gram-negative bacterium” (The Journal of Biological Chemistry, 2021).

Tested on: CSCC[C@H](N)C(=O)O
Assay: purified protein, by the assay type
Settings: other: WT, L-Met varied, ATP 2 mM, 25 °C, pH 7.5

“XcMetRS (WT) (Xanthomonas citri subsp. citri 306)” was tested, and the Km was 10.5 ± 0.9 µM.
